Details: 2.5 ppb = lowest calibration concentration; for ICP-MS Results (ppb) Glass vials (2% HNO3): glass vials extracted in 2% HNO3, 60° C.; for ICP-MS Results (ppb) Glass vials (2% HNO3) / ICP-MS Results (ppb) Stoppers (2% HNO3): ~24 h; for ICP-MS Results (ppb) Stoppers (2% HNO3): stoppers extracted in 2% HNO3, 60° C.; for ICP-MS Results (ppb) Stoppers (Reflux pH 3.4): refluxed aqueous solution pH 3.4

Mercury
ICP-MS Results (ppb) Glass vials (2% HNO3): <2.5 ppb | ICP-MS Results (ppb) Stoppers (2% HNO3): <2.5 ppb | ICP-MS Results (ppb) Stoppers (Reflux pH 3.4): <2.5 ppb

Nickel
ICP-MS Results (ppb) Glass vials (2% HNO3): <2.5 ppb | ICP-MS Results (ppb) Stoppers (2% HNO3): <2.5 ppb | ICP-MS Results (ppb) Stoppers (Reflux pH 3.4): 62.5 ppb
